# Measurements taken from PubChem BioAssay AID1487 (National Center for Advancing Translational Sciences (NCATS), 2009).
# The list shows a part of the results, in another mix than the full data. Inconclusive results are not listed. Activity calls are given as the source filed them. The call rests on the fitted dose curve; in most records, active means well fitted inhibition curve with a large enough effect in the signal ratio, with a control signal flat (not every such curve was filed as active); inconclusive means small, poorly fitted or top-dose-only effect, or effect the other way, or a change in a side signal; inactive means flat fitted curve, though single readings scatter; the % refers to the signal ratio.
# Assay: qHTS Assay for Modulators of Lamin A Splicing
# Conditions: HeLa LMNA splicing GFP/RFP minigene ratio, 48 h; at 46.1 µM (top of the series) unless noted
# On the % scale 0 is the no-effect control and ±100 the full control effect.
row,Structure (SMILES),"ratio change, negative = inhibition"
1,O=[As](O)(c1ccccc1Br)c1ccccc1Br,inactive: 16.4% [at 46 µM]
2,O=P(Nc1nccs1)(c1ccccc1)c1ccccc1,inactive: -10%
3,CC(C)C(=O)NC(Sc1ccccc1)C(Cl)(Cl)Cl (centres undefined),inactive: 0.428%
4,c1nnnn1CCn1cnnn1,inactive: 9.06%
5,CC(=O)NC(SC(=S)N(C)C)C(Cl)(Cl)Cl (centres undefined),inactive: -7.64%
6,O=C(OC1CN2CCC1CC2)c1cccc(Cl)c1 (centres undefined),inactive: 3.9%
7,CCOC(=O)NC(Sc1ccccc1)C(Cl)(Cl)Cl (centres undefined),inactive: 9.3%
8,O=C(NC1CCS(=O)(=O)C1)NP(=S)(Oc1ccccc1)Oc1ccccc1 (centres undefined),inactive: -16.7% [at 46 µM]
9,CCC(=O)N1C2C3N(C(=O)CC)C1C1N(C(=O)CC)C(C(N1C(=O)CC)N3C(=O)CC)N2C(=O)CC,inactive: -0.22%
10,CC(=O)NC(SC(=S)N(CC(C)C)CC(C)C)C(Cl)(Cl)Cl (centres undefined),inactive: 12%
11,Cc1ccc(OP(=O)(Nc2ccccn2)Oc2ccc(C)cc2)cc1,inactive: -22.2% [at 46 µM]
12,COC(=O)c1cc2c(s1)N=C(c1ccccc1)N(C)P2(=O)N1CCOCC1 (centres undefined),inactive: 6.67%
13,O=P1(Nc2nc3ccc(Cl)cc3s2)COc2ccccc2O1 (centres undefined),inactive: 4.08%
14,CC(C)(C)C(=O)NC(Sc1ccccc1)C(Cl)(Cl)Cl (centres undefined),inactive: 20.7% [at 46 µM]
15,CC(=O)Nc1ccc([As](=O)(O)O)c(O)c1,inactive: 21.7% [at 46 µM]
16,Cc1ccc(N/C(=N/P(=O)(N2CCOCC2)N2CCOCC2)N2CCOCC2)cc1,inactive: 1.24% [at 46 µM]
17,CN1CCCC(OC(=O)C(c2ccccc2)c2ccccc2)C1 (centres undefined),inactive: -5.39%

row,Structure (SMILES),"ratio change, negative = inhibition"
1,O=C(NC(Sc1ccncn1)C(Cl)(Cl)Cl)c1ccccc1 (centres undefined),inactive: -8.01%
2,Oc1ccccc1CNc1ccccn1,inactive: 12.7%
3,CC(C)CC(=O)NC(Sc1ccc(Cl)cc1)C(Cl)(Cl)Cl (centres undefined),inactive: -4.03%
4,CC(=O)Nc1ccc([As](=O)(O)O)cc1,inactive: -0.73% [at 46 µM]
5,CN(C(=O)Cc1ccc(Cl)c(Cl)c1)[C@H]1CCCC[C@@H]1N1CCCC1,inactive: -10.9%
6,Cc1cc(SC(NC(=O)c2ccc(F)cc2)C(Cl)(Cl)Cl)ncn1 (centres undefined),inactive: -9.01%
7,CCOP(=O)(Nc1ccccc1)OCC,inactive: 12.1%
8,CCN(N=Nc1nonc1N)c1nonc1N,inactive: -13.9%
9,O=[N+]([O-])c1ncn(CCn2ncnc2[N+](=O)[O-])n1,inactive: 4.8% [at 9.22 µM]
10,COc1ccc(C2=NCC(CBr)S2)cc1 (centres undefined),inactive: -12.3% [at 46 µM]
11,Cc1ccc(NP(=O)(Oc2ccccc2)Oc2ccccc2)nc1,inactive: 9.35% [at 46 µM]
12,CC(=O)N1C2C3N(C(C)=O)C1C1N(C(C)=O)C(C(N1C(C)=O)N3C(C)=O)N2C(C)=O,inactive: 11.7%
13,O=[N+]([O-])c1cccc2n[nH]nc12,inactive: -0.835%
14,CCN(/C(=N/P(=O)(N1CCOCC1)N1CCOCC1)N1CCOCC1)c1ccc(OC)cc1,inactive: 3.82% [at 46 µM]
15,Nc1ccc([As](=O)(O)c2ccc(N)cc2)cc1,inactive: 0.194% [at 46 µM]
16,CC1CCN(C(=O)Oc2c(Cl)cc(Cl)c3cccnc23)CC1,inactive: -4.95%
17,CN(C)C(=O)OCCc1n(C)cc[n+]1C,inactive: -6.49%
